This note sets out measurements from PMC10262665 (Science (New York, N.Y.), 2023).

The subject of assay [1] is H9c2 rat cardiomyoblasts. The assay is described as follows: 13C-glucose metabolic tracing into lactate. It counts as cell-based. To be noted: dimethylated fatty acid analogs.
In assay [2] the test system is H9c2 rat cardiomyoblasts. The assay is described as follows: 13C-lactate metabolic tracing into pyruvate. It counts as cell-based. To be noted: dimethylated fatty acid analogs.

With `CCCCCCCCCCCCCCC(C)(C)C(=O)O` [DiMePal, 2,2-dimethyl-palmitate, reference compound], in the assay with H9c2 rat cardiomyoblasts [1], the 13C-glucose tracing entry is “inhibited”. The 13C-lactate tracing result with H9c2 rat cardiomyoblasts [2] is “inhibited”.
